Consider 31 compounds from article PMC12155096 (International Journal of Molecular Sciences, 2025).

By UniProt entry, the sequences of proteins in these tests, tags left out.
UniProt P08684, whole entry: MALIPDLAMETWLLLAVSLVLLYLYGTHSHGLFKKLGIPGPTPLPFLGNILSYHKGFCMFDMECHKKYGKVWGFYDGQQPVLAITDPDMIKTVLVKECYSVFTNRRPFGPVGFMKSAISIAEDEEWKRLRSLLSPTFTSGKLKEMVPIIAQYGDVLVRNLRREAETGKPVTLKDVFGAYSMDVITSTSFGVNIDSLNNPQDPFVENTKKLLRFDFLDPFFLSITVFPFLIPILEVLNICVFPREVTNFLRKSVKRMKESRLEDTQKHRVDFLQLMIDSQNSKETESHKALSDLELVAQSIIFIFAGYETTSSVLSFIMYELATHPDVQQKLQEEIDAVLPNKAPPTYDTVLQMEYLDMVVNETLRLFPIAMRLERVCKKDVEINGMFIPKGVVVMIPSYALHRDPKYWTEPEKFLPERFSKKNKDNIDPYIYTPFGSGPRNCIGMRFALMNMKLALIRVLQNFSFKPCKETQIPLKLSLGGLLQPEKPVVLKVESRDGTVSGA
UniProt P05177, whole entry: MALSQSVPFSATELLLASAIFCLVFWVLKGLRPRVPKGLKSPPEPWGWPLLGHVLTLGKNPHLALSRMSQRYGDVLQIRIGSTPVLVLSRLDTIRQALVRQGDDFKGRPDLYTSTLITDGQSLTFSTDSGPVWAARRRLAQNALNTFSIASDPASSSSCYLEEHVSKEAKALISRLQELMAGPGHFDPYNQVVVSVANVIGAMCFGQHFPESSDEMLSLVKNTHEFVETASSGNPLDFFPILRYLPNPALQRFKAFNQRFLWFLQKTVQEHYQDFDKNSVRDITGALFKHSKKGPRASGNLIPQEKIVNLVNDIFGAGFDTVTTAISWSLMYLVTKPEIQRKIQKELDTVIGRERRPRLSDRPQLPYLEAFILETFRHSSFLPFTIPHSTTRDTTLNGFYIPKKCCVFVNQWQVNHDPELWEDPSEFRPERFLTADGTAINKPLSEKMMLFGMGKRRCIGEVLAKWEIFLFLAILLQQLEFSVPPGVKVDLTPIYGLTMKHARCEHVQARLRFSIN
UniProt P10635, whole entry: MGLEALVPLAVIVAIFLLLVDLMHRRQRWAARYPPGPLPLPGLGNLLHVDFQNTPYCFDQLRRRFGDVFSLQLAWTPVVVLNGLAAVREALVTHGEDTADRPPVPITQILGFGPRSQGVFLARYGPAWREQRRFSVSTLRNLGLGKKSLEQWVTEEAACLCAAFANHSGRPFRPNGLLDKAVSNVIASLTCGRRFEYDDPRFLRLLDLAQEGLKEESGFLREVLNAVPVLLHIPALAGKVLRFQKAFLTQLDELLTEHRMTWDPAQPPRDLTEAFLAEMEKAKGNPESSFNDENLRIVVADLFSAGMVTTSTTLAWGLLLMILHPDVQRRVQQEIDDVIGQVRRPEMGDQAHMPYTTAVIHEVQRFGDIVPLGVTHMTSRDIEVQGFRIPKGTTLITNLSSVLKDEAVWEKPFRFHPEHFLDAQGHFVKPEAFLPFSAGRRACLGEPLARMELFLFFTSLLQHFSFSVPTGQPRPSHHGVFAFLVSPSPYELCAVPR
UniProt P11712, whole entry: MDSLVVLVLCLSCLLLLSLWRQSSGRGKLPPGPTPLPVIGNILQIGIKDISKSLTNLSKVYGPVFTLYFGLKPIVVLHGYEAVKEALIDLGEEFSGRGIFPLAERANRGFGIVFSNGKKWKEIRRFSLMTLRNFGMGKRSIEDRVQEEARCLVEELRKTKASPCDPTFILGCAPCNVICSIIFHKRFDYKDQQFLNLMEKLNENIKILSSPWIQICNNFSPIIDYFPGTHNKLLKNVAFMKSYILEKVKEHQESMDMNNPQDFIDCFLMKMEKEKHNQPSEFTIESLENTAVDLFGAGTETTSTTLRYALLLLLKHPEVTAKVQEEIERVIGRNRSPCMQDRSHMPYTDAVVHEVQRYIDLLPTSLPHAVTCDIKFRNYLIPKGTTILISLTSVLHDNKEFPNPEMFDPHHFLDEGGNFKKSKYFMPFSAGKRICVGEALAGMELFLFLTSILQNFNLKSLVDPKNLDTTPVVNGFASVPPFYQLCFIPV
UniProt P33261, whole entry: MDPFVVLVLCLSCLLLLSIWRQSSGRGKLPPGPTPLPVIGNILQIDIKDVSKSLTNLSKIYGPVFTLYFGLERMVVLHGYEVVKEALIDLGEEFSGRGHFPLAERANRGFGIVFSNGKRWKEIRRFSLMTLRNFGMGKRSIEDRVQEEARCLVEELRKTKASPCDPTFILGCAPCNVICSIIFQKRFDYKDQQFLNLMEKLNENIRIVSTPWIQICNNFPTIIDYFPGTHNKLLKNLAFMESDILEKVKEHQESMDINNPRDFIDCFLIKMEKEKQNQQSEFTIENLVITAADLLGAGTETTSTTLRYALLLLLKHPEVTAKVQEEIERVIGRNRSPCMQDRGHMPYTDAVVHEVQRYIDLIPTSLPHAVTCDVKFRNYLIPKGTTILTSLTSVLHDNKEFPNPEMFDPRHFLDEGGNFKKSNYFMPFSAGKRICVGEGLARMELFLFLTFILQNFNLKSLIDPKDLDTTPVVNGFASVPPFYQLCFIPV
UniProt P08659, whole entry: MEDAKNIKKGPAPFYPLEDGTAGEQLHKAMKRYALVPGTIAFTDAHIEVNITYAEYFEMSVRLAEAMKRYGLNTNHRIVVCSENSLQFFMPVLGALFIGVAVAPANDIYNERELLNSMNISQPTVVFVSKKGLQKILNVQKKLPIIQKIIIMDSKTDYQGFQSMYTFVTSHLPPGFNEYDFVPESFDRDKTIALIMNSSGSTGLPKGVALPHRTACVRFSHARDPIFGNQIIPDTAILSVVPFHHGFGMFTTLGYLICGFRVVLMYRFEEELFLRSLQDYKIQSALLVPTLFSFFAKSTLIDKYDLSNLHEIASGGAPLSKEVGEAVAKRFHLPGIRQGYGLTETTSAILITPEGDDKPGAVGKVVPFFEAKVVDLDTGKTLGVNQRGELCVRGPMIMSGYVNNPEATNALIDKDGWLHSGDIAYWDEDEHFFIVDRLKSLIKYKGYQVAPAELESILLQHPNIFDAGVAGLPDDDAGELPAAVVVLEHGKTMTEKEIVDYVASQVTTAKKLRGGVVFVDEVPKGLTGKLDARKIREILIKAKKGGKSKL

For data set [1], the target named is T1, CYP3A4 (Homo sapiens, UniProt P08684). Nature of the data set: biochemical. The note with it: CYP3A4 AC50 (half-maximal activity concentration).
Data set [2] deals with T2, human CYP1A2 (Homo sapiens, UniProt P05177). The note with it: for CYP1A2 Efficacy (in parenthesis): human.
The target in data set [3] is T3, human CYP2D6 (Homo sapiens, UniProt P10635).
Data set [4] deals with T4, human CYP2C9 (Homo sapiens, UniProt P11712).
In data set [5] the target is T5, human CYP2C19 (Homo sapiens, UniProt P33261).
Data set [6] concerns the target T3, human CYP2D6. As to the kind of experiment: biochemical. The note with it: for AC50: CYP2D6 AC50 (half-maximal activity concentration).
The target of data set [7] is T6, Photinus pyralis (firefly) luciferase (Photinus pyralis, UniProt P08659).
The target of data set [8] is T6, Photinus pyralis (firefly) luciferase. As to the kind of experiment: biochemical.
Data set [9] addresses T2, human CYP1A2. Nature of the data set: biochemical. The note with it: for AC50: CYP1A2 AC50 (half-maximal activity concentration); for IC50: CYP1A2 IC50 (half-maximal inhibitory concentration).
The target of data set [10] is T5, human CYP2C19. As to the kind of experiment: biochemical. The following applies: for IC50: CYP2C19 IC50 (half-maximal inhibitory concentration); for AC50: CYP2C19 AC50 (half-maximal activity concentration).
The target in data set [11] is T4, human CYP2C9. Nature of the data set: biochemical. The note with it: for AC50: CYP2C9 AC50 (half-maximal activity concentration).
Data set [12] has as its target T1, CYP3A4.
The mark [13] stands for this setting: CYP2D6 IC50 (half-maximal inhibitory concentration).
The mark [14] stands for this setting: read-out: Luciferase IC50 (half-maximal inhibitory concentration).

Structures can show the parent of a compound that is named as a salt. Where two headings read alike, the source gives them in different places.

The AC50 is the concentration at which the activity in the assay is half-maximal.

`O=C(O)c1cccc(C(=O)O)n1` [2,6-Pyridinedicarboxylic acid]: at CYP3A4 [1], the AC50 was 5.81 µM. Also, the “CYP1A2 AC50 (half-maximal activity concentration)” value (shortened to “CYP1A2 AC50”) on human CYP1A2 [2] is “Inactive”. The “CYP2D6 AC50 (half-maximal activity concentration)” value (“CYP2D6 AC50” for short) at human CYP2D6 [3] was “Inactive”. Besides, the “CYP2C9 AC50 (half-maximal activity concentration)” value (“CYP2C9 AC50” below) at human CYP2C9 [4] was “Inactive”. Moreover, at human CYP2C19 [5], the “CYP2C19 AC50 (half-maximal activity concentration)” value (“CYP2C19 AC50” below) was “Inconclusive inhibitor”.
On human CYP2D6 [6], `COc1ccnc2c1CCCCC2[S+]([O-])c1nc2ccccc2[nH]1` (stereo not drawn) [Nepaprazole] displayed an IC50 of 0.33 ± 0.1 µM.
Regarding `CN(C)CCCN1c2ccccc2Sc2ccccc21` [Promazine hydrochloride], the “Luciferase IC50 (half-maximal inhibitory concentration)” value in [7] was “Inactive”.
In data set [8], `CN(C)c1ccc(C(=C2C=CC(=[N+](C)C)C=C2)c2ccccc2)cc1` [Malachite green] yielded an IC50 of 28.9 µM.
`CCN(CC)C(=O)c1cccc(C)c1` [DEET]: the concentration at half-maximal activity (AC50) on human CYP1A2 [2] came out at 40.1 µM. Moreover, the “CYP2D6 AC50” value at human CYP2D6 [3] is recorded as “Inactive”. For the same compound, the “CYP2C9 AC50” value at human CYP2C9 [4] was “Inactive”. Further, at human CYP2C19 [5], the concentration at half-maximal activity (AC50) was 62.1 µM and the “CYP2C19 Efficacy” value was 62.06 ± 23.35 (-92 ± 15) %.
With `CC(C)Cn1cnc2c(N)nc3ccccc3c21` [Imiquimod], the concentration at half-maximal activity (AC50) on human CYP2D6 [6] worked out at 5.38 µM; at human CYP1A2 [9] it was 4.26 µM. In addition, the “CYP2C9 AC50” value at human CYP2C9 [4] is given as “Inactive”. Moreover, the “CYP2C19 AC50” value at human CYP2C19 [5] was “Inactive”.
Take `CC(=O)c1ccc2c(c1)N(CCCN1CCC(CCO)CC1)c1ccccc1S2` [Piperacetazine]: the “Luciferase IC50 (half-maximal inhibitory concentration)” value in [7] was “Inactive”.
Regarding `CS(=O)(=O)CCNCc1ccc(-c2ccc3ncnc(Nc4ccc(OCc5cccc(F)c5)c(Cl)c4)c3c2)o1` [Lapatinib], the IC50 against human CYP2C19 [10] (mean ± standard deviation from three experiments, Inactive = no activity call) turned out to be 11.2 ± 2.55 µM.
In the case of `COc1cc(NC(C)CCCN)c2ncccc2c1` (stereo not drawn) [Primaquine diphosphate], the IC50 against human CYP2D6 [6] (setting [13]) worked out at 7.26 µM; against human CYP2C9 [11], 26.5 µM; against human CYP2C19 [10], 11.6 µM; against human CYP1A2 [9] it was 0.45 µM.
As to `CCOP(=S)(OCC)Oc1cc(C)nc(N(CC)CC)n1` [Pirimiphos-ethyl], the “Luciferase IC50 (half-maximal inhibitory concentration)” value in [7] is given as “Inactive”.
As to `CCOP(=S)(OCC)Oc1cc(Cl)c(Br)cc1Cl` [Bromophos-ethyl], the “Luciferase IC50 (half-maximal inhibitory concentration)” value in data set [7] is given as “Inactive”.
For `O=S(=O)([O-])c1ccc2ccccc2c1.[Na+]` [Sodium 2-naphthalenesulfonate], the “CYP1A2 AC50” value at human CYP1A2 [2] is recorded as “Inactive”. Besides, the “CYP2D6 AC50” value on human CYP2D6 [3] is “Inactive”. Further, at human CYP2C9 [4], the “CYP2C9 AC50” value is on record as “Inconclusive inhibitor”. The “CYP2C19 AC50” value on human CYP2C19 [5] is reported as “Inactive”.
In the case of `CN(CCOc1ccc(CC2SC(=O)NC2=O)cc1)c1ccccn1` (stereo not drawn) [Rosiglitazone maleate], the figures for the AC50 on human CYP2C9 [11] and at human CYP1A2 [9] were 53.7 µM and 79.5 µM, respectively.
As for `O=[N+]([O-])c1cc([N+](=O)[O-])c2ccccc2c1` [1,3-Dinitronaphthalene], the IC50 against human CYP2D6 [6] (setting [13]) worked out at 32.6 µM; at human CYP2C9 [11], 32.2 µM; against human CYP2C19 [10], 31.8 µM. Further, on human CYP2D6 [3] (human), the “CYP2D6 Efficacy (in parenthesis)” value is 32.64 ± 9.1 (-41 ± 6) %. For the same compound, on human CYP2C9 [4] (human), the “CYP2C9 Efficacy (in parenthesis)” value is 32.22 ± 6.93 (29 ± 3) %. Also, the “CYP2C19 Efficacy (in parenthesis)” value at human CYP2C19 [5] (human) is 31.83 ± 10.47 (-82 ± 16) %.
`CC1(C)C(C=C(Cl)Cl)C1C(=O)OCc1cccc(Oc2ccccc2)c1` (stereo not drawn) [Permethrin] returned an AC50 at human CYP1A2 [9] of 43.2 µM.
For `CCOP(=S)(OCC)Oc1nc(Cl)n(C(C)C)n1` [Isazofos], the “Luciferase IC50” value in [7] was “Inactive”.
Consider `OCCN1CCN(CCCN2c3ccccc3Sc3ccc(C(F)(F)F)cc32)CC1` [Fluphenazine hydrochloride], for which, in data set [7], the “Luciferase IC50 (half-maximal inhibitory concentration)” value was “Inactive”.
For `CC1(C)CCC(=Cc2ccc(Cl)cc2)C1(O)Cn1cncn1` (stereo not drawn) [Triticonazole], the “CYP1A2 Efficacy (in parenthesis)” value at human CYP1A2 [2] was 39.86 ± 4.58 (-51 ± 5) %. On human CYP1A2 [9], this compound returned an IC50 of 39.9 µM.
`OC(Cn1cncn1)(Cn1cncn1)c1ccc(F)cc1F` [fluconazole, reference compound]: the IC50 against human CYP2C9 [11] (IC50 CYP2C9 assay) came out at 15 µM.
On to `CN(C)c1ccc2nc3ccc(=[N+](C)C)cc-3sc2c1` [Methylene blue], for which the IC50 against human CYP2D6 [6] (setting [13]) was 9.87 µM; on human CYP2C9 [11], 7.96 µM; at human CYP1A2 [9], 2.25 µM.
As to `CN(C)c1ccc(C(=C2C=CC(=[N+](C)C)C=C2)c2ccccc2)cc1.O=C([O-])C(=O)O` [C.I. Basic Green 4 oxalate (1:x)], in [7] (setting [14]), the IC50 was 20.1 µM.
In the case of `CCCCOCCOC(=O)c1cccnc1` [Nicoboxil], the “Luciferase IC50 (half-maximal inhibitory concentration)” value in data set [7] is “Inactive”.
Regarding `CC(C)COCC(CN(Cc1ccccc1)c1ccccc1)N1CCCC1` (stereo not drawn) [Bepridil], the IC50 at human CYP2C9 [11] (CYP2C9 IC50) is 22.2 µM.
Regarding `CCc1nc(N)nc(N)c1-c1ccc(Cl)cc1` [Pyrimethamine], the “CYP1A2 AC50” value at human CYP1A2 [2] is recorded as “Inactive”. In addition, the half-maximal activity concentration (AC50) on human CYP2C9 [11] was 74.5 µM; on human CYP2C19 [10] it was 53.2 µM.
For the compound `CCOP(=S)(OCC)Oc1ccc([S+](C)[O-])cc1` (stereo not drawn) [Fensulfothion], the “Luciferase IC50” value in [7] was “Inactive”.
Take `O=[N+]([O-])c1cccc2cccc([N+](=O)[O-])c12` [1,8-Dinitronaphthalene]: the values for the AC50 on human CYP2C9 [11], on human CYP2C19 [10] and at human CYP1A2 [9] were 9.96 µM, 28.4 µM and 1.99 µM, respectively.
Compound `Oc1cc2ccccc2c2ccccc12` [9-Phenanthrol] displayed an IC50 against CYP3A4 [12] of 6.1 µM.
On to `CN(C)c1ccc(C(=C2C=CC(=[N+](C)C)C=C2)c2ccccc2)cc1.CN(C)c1ccc(C(=C2C=CC(=[N+](C)C)C=C2)c2ccccc2)cc1.O=C(O)C(=O)O.O=C([O-])C(=O)O.O=C([O-])C(=O)O` [Malachite green oxalate], for which, in [7] (setting [14]), the IC50 stood at 24.9 µM.
Turning to `CC1(C)CCC(Cc2ccc(Cl)cc2)C1(O)Cn1cncn1` (stereo not drawn) [Metconazole], the “CYP1A2 Efficacy (in parenthesis)” value at human CYP1A2 [2] was 39.91 ± 0 (-61 ± 3) %. This compound also came in with an IC50 against human CYP1A2 [9] of 39.9 µM.
On to `O=c1[nH]c2ccccc2n1C1CCN(CCCC(c2ccc(F)cc2)c2ccc(F)cc2)CC1` [Pimozide], for which the figures for the AC50 at human CYP2D6 [6] and on human CYP2C9 [11] were 3.75 µM and 16.1 µM, respectively. In addition, the “CYP2C19 AC50” value on human CYP2C19 [5] is recorded as “Inconclusive inhibitor”.
Regarding Phenylmercuric acetate, the IC50 on human CYP1A2 [2] worked out at 17.7 µM; against human CYP2D6 [3] it was 0.33 µM; in data set [7] (read-out: Luciferase IC50) it was 2.15 µM; at CYP3A4 [12], 6.1 µM; against human CYP2C9 [4], 3.24 µM; at human CYP2C19 [5], 9.31 µM.
